Measured values reported in ChEMBL document CHEMBL1132454 (J Med Chem, 1999).

The chains behind the UniProt entries cited, without tags or fusion partners.
UniProt P31652, whole entry: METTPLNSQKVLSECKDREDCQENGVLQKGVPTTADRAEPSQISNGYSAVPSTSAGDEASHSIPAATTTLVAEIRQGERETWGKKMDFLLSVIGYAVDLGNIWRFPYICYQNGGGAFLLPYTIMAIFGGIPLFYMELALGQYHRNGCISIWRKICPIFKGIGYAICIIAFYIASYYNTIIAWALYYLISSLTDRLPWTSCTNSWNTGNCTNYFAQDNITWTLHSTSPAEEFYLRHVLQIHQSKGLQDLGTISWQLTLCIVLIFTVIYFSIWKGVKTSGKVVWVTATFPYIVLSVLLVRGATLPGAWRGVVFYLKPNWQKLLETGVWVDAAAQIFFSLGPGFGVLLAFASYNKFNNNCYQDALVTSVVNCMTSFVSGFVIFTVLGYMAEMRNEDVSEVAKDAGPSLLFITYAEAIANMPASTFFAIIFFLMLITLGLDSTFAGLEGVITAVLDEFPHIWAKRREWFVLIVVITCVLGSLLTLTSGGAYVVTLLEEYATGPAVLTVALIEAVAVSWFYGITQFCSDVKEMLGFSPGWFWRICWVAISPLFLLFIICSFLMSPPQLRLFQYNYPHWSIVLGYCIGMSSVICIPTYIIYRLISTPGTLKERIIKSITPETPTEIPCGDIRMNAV
UniProt Q9WTR4, whole entry: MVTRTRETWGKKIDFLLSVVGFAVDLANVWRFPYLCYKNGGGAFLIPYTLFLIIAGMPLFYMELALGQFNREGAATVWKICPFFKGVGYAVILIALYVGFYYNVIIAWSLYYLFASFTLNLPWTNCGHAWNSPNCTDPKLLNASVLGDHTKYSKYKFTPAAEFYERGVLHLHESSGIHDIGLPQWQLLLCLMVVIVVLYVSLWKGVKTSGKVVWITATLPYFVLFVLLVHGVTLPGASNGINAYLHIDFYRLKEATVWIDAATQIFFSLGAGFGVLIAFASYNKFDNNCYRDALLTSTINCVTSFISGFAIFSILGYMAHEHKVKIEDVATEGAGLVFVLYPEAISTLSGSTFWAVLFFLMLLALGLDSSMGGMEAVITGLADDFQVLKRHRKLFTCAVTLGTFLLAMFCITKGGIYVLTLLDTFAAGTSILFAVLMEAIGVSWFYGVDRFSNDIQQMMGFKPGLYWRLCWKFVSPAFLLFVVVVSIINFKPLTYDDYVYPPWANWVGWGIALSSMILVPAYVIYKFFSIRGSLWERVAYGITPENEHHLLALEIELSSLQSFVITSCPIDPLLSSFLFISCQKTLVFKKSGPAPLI

Key:
[1] = target: Sodium-dependent serotonin transporter (Rattus norvegicus, UniProt P31652); assay: Binding affinity against Serotonin transporter in male Sprague-Dawley rats using [3H]paroxetine ligand
Outline: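 Male Sprague-Dawley rat midbrain membranes in 50 mM Tris, 120 mM NaCl, 5 mM KCl, pH 7.4; 1.5 mg original wet tissue per tube. Incubation with 0.2 nM [3H]paroxetine for 90 min at room temperature. Nonspecific binding with 1 μM citalopram. Filtration and scintillation counting; Ki from at least three experiments in triplicate.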

[2] = target: Norepinephrine transporter (Rattus norvegicus, UniProt Q9WTR4); assay: The compound was tested for binding affinity nisoxatine ligand
Outline: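 Male Sprague-Dawley rat frontal cortex membranes in 50 mM Tris, 120 mM NaCl, 5 mM KCl, pH 7.4; 8 mg original wet tissue per tube. Incubation with 0.5 nM [3H]nisoxetine for 60 min at 0-4 °C. Nonspecific binding with 1 μM desipramine. Filtration and scintillation counting; Ki from at least three experiments in triplicate.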

Row | Structure (SMILES) | Ki [1] | Ki [2]
1 | COC(=O)[C@H]1[C@@H](OC(=O)c2ccccc2)C[C@@H]2CC[C@H]1N2C [COCAINE] | 172 nM | 
2 | Fc1ccc(C(OCCN2CCN(CCCc3ccccc3)CC2)c2ccc(F)cc2)cc1 [VANOXERINE] | 24.1 nM | 1270 nM
